{"source": "patent US20240382463A1", "about": "“Composition Comprising HDAC Inhibitor and Immune Checkpoin Inhibitor and Methods For Using the Same” (Avstera Therapeutics Corp., priority 2023, published 2024)", "key": {"[1]": {"test_system": "murine bone marrow-derived macrophages (BMDM)", "conditions": "FACs"}, "SM1 melanoma tumors": {"test_system": "SM1 melanoma tumors", "experiment": "SM1 melanoma model, in vivo tumor growth", "set-up": "species or system C57BL/6 mice", "procedure": "In vivo tumor growth: Analysis of tumor growth using the murine SM1 melanoma model were performed in accordance with IACUC guidelines at Georgetown University. Murine melanoma tumors were established by implanting 0.75×10^6 SM1 cells in the right flank area of 6-8 weeks-old female C57BL/6 mice. When the tumors were palpable (5×5 mm), mice were randomized into treatment groups, and AVS100 and vehicle control were administered by oral gavage daily in a suspension containing PEG-6000, Microcrystalline Cellulose, Corn Starch, Silicon Dioxide, Magnesium Stearate and Sterile water. Anti-PD1 or isotype control (BE0146-CUST and BE0089-CUST, Bio X cell) were injected i.p. […] The body weights of animals were recorded once a week using a portable scale to monitor general health. […] The mapping and quantification of the T-cell repertoire was provided by the Azenta bioinformatics pipeline, which mapped the reads to the appropriate V(D)J genes. The clones that were identified were ranked (in decreasing order) by frequency, and the Pielou index was calculated for each condition and replicate as follows: […]"}}, "data": [{"smiles": "O=C(NCCc1cc(C(=O)NO)no1)c1ccc(Cl)c(Cl)c1", "note": "[AVS100, 5-(2-(3,4-dichlorobenzamido)ethyl)-N-hydroxyisoxazole-3-carboxamide]", "values": [{"measurement": "generation of CD80hi F4/80+ CD11b+ M1 macrophages", "setting": "[1]", "result": "normal generation"}, {"measurement": "generation of CD206hi F4/80+ CD11b+ M2 macrophages", "setting": "[1]", "result": "complete blockade"}, {"measurement": "M1/M2 ratio of TAMs", "setting": "SM1 melanoma tumors; CD80 / CD206, FACs", "result": "significant increase"}, {"measurement": "CD8/CD4 ratio", "setting": "SM1 melanoma tumors; in control as well as in anti-PD1 groups", "result": "significant increase"}]}]}
